Measured values published in PubChem BioAssay AID438 (Columbia University Molecular Screening Center, 2006).
Only a part is listed here, and it is no random draw. Active and inactive are the calls of the source.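 How the source made its calls: active means inhibition above 20% together with a positive visual image hit; inconclusive means visual image hit but inhibition not above 20%; inactive means no visual image hit.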

Assay: inhibitors of TNFa-induced NFkB p65 translocation, primary screen, imaging, HUVEC, MLSMR starter and 10KST1 sets (AID 438);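 further: compound added about 3h40 before a 20 min TNFalpha stimulation; signal is the nuclear over cytoplasmic p65 intensity ratio per well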
Conditions: HUVEC TNFa-induced p65 nuclear translocation, at 2 µM, stronger effect = higher value, 0% TNFa-plus-vehicle, 100% no-TNFa wells

Row | SMILES | inhibition
1 | CP(=S)(Nn1cnnc1)Oc1ccccc1 (stereo unspecified) | inactive: -4.3%
2 | Cc1ccc(C)c(NP(C)(=O)Oc2ccccc2)c1 (stereo unspecified) | inactive: -10.1%
3 | CP(=O)(Nc1ccc2c(c1)OCCO2)Oc1ccccc1 (stereo unspecified) | inactive: 9.7%
4 | CN(C)CCOC(=O)C(O)(c1ccccc1)C1CCCCC1 (stereo unspecified) | inactive: 18.6%
5 | CP(=O)(Nc1ccccn1)Oc1ccccc1 (stereo unspecified) | inactive: 2.1%
6 | CCN(CC)CC(O)COC(=O)C(O)(c1ccccc1)C1CCCCC1 (stereo unspecified) | inactive: -7.3%
